Data from ChEMBL document CHEMBL5352471, “Design, synthesis, and pharmacological evaluations of pyrrolo[1,2-a]quinoxaline-based derivatives as potent and selective sirt6 activators” (Eur J Med Chem, 2023).
Calls of active or inactive are those of the source. No cut-off for these calls is given here.

Amino acid sequences for entries named in this document (tags omitted). A change or cut given only in a name is not applied to a line headed by its entry.
UniProt Q9NXA8: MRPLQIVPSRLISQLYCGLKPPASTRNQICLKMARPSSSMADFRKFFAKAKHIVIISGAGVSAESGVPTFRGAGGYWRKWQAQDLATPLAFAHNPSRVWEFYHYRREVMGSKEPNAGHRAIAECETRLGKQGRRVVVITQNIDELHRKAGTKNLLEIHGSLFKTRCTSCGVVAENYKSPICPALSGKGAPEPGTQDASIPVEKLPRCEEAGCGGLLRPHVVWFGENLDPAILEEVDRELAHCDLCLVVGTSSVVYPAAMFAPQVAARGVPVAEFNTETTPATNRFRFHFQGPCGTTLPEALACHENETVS

How the values were obtained:
[1] = biological target: T1, NAD-dependent protein deacetylase sirtuin-1 (Homo sapiens) (UniProt Q96EB6); experiment: Activation of human SIRT1 (unknown origin) deacetylation activity using fluorogenic substrate measured upto 120 mins by microplate reader analysis
T1 sequence (whole entry): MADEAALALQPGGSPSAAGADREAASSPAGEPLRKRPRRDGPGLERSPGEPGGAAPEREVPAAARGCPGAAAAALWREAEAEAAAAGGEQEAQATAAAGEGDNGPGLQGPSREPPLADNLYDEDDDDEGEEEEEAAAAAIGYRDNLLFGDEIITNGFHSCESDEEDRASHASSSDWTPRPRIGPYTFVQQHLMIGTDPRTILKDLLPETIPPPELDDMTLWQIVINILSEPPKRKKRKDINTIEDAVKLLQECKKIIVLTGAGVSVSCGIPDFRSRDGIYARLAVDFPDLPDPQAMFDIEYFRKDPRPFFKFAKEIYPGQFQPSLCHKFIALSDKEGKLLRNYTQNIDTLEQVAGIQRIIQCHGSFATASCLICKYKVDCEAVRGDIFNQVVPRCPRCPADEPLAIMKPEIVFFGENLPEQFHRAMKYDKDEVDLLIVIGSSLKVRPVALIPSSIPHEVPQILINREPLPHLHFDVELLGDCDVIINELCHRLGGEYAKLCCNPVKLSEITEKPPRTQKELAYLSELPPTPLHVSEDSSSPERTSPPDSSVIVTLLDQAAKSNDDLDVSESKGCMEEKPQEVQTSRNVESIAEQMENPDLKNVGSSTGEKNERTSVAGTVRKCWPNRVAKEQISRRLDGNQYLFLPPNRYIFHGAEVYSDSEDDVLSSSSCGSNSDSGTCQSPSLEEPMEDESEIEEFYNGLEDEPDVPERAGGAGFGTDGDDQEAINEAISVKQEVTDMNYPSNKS
How it was run: (§1)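 Recombinant Sirt1 or Sirt2 was assayed with a kit fluoro-substrate peptide (0.1 mM stock), NAD+ (8 mM stock) and developer in a 25 µL reaction at room temperature. Fluorescence was read over 125 min, at Ex/Em 350/450 nm for Sirt1 and 490/530 nm for Sirt2.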

[2] = biological target: T2, NAD-dependent protein deacetylase sirtuin-2 (Homo sapiens) (UniProt Q8IXJ6); experiment: Activation of human SIRT2 (unknown origin) deacetylation activity using fluorogenic substrate measured upto 120 mins by microplate reader analysis; how it was run: as §1
T2 sequence (whole entry): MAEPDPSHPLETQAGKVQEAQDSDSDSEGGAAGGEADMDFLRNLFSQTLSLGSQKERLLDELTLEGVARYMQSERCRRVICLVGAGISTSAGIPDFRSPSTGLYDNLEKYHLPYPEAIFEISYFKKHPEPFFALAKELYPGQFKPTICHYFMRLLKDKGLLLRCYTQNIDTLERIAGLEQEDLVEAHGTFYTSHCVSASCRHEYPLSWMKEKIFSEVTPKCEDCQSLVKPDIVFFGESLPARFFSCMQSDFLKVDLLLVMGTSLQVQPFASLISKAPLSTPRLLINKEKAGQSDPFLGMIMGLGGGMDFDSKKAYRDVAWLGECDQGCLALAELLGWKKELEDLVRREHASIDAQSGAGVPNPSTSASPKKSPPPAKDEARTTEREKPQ

[3] = biological target: NAD-dependent protein deacylase sirtuin-5, mitochondrial (Homo sapiens) (UniProt Q9NXA8); experiment: Activation of human SIRT5 (unknown origin) desuccinylation activity using fluorogenic substrate measured upto 120 mins by microplate reader analysis

| SMILES | Activity [1] | Activity ([1]; filed as activator) | Activity [2] | Activity [3] |
| --- | --- | --- | --- | --- |
| OCCN1CCN(c2ncccc2C2Nc3ccccc3-n3cccc32)CC1 (stereo not given) | inactive | Active | inactive | inactive |
| OC1CN(CCN2CCN(c3ncccc3C3Nc4ccccc4-n4cccc43)CC2)C1 (stereo not given) | inactive | Active | inactive | inactive |
| c1ccc2c(c1)NC(c1cccnc1N1CCN(CCN3CCCC3)CC1)c1cccn1-2 (stereo not given) | inactive | Active | inactive | inactive |
| c1ccc2c(c1)NC(c1cccnc1N1CCN(CCn3ccnc3)CC1)c1cccn1-2 (stereo not given) | inactive | Active | inactive | inactive |
| COCCN1CCN(c2ncccc2C2Nc3ccccc3-n3cccc32)CC1 (stereo not given) | inactive | Active | inactive | inactive |
